Target: Amine oxidase [flavin-containing] A (Homo sapiens, UniProt P21397)
Assay: Inhibition of human MAO-A using kynuramine/benzylamine as substrate

Protein sequences, listed by entry. Tags and fused reporters are not part of them.
UniProt P21397, whole entry: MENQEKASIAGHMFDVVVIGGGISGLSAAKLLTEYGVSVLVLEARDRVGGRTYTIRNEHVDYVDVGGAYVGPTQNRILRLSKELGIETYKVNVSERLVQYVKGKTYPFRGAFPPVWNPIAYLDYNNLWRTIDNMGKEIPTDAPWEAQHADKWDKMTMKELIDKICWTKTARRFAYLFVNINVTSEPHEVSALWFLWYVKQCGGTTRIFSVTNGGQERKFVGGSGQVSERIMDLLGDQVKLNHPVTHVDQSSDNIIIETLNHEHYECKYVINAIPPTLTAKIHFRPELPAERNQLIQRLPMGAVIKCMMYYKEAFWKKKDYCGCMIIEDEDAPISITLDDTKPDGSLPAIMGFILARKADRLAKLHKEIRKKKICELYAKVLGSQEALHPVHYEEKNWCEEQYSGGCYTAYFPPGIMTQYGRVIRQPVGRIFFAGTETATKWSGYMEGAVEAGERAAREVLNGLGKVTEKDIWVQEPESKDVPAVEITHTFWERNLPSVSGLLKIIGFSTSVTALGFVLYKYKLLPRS

- IC50: 1200 nM
Structure (SMILES): NC1CC1c1ccc(NC(=O)C(Cc2ccccc2)NC(=O)OCc2ccccc2)cc1 (stereo unspecified)
